TDP1 cell noCPT = qHTS for Inhibitors of human tyrosyl-DNA phosphodiesterase 1 (TDP1): qHTS in cells in absence of CPT; DT40 Tdp1-/- hTDP1 cells, no CPT, ATP luminescence, 48 h; Potency, µM (series often up to 46.2 µM), for inactives: top-dose activity change, negative = growth inhibition, usual class: inhibitors; AID 686978, 2013; actives 15% (n = 420,000); further: potency means the concentration at half of the fitted maximal effect; on the % scale 0 is the no-effect control and ±100 the full control effect; nearly all actives have a fitted effect of over 55% in size
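DT40 Tdp1-/-;hTDP1 cells, no CPT (DMSO vehicle only), 400 cells/well; compounds pin-transferred; ≥48 hr, 37 °C; CellTiter-Glo 30 min RT dark, luminescence read.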
TDP1 block = TDP1 (human) enzyme inhibition; recombinant TDP1, AlphaScreen DNA substrate cleavage; Q9NUW8; Potency, µM (titrated, usually from 130 µM), for the others: at the top dose activity change, negative = inhibition, most hits filed as inhibitors; AID 485290; actives 0.28% (n = 350,000); further: potency means the concentration at half of the fitted maximal effect; on the % scale 0 is the no-effect control and ±100 the full control effect; nearly all actives have a fitted effect of over 40% in size
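Steps: enzyme plus compound, 15 min RT; add biotin/phosphotyrosine-FITC oligonucleotide (15 nM final), react 5 min; add donor/acceptor beads (10 ug/ml final), 10 min; read AlphaScreen. Tdp1 at 1 nM final.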
uPA generation = blocks generation of uPA at the cell surface | cell surface uPA generation assay, qHTS | Potency, µM (doses to about 38.3 µM), without a hit: at the highest dose activity change, negative = inhibition, hits mostly inhibitors | actives 0.31% (n = 330,000); active means well fitted inhibition curve with a large enough effect; inconclusive means small, poorly fitted or top-dose-only effect; inactive means no such curve, though single readings can be large or run the other way; tested in mouse RAW 264.7 cells; further: potency means the concentration at half of the fitted maximal effect; on the % scale 0 is the no-effect control and ±100 the full control effect; nearly all actives have a fitted effect of over 55% in size
miR-21 reporter = raises the signal of a miR-21 reporter | AID 2288 | 340,000 tested, under 10 active | Potency, µM (series often up to 38.3 µM), without a hit: at the highest dose reporter change, positive = more light | HeLa miR-21 FLuc reporter, luciferase, 48 h; active = well fitted rising curve with a large enough effect; inconclusive = small, poorly fitted or top-dose-only effect; inactive = no such curve, though single readings can be large or run the other way;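 further: % of control where 0% means no effect; miR-21 action dims this reporter so a rising signal means less miR-21 action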
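Compounds were titrated across several concentrations (up to approximately 40 uM) and incubated 48 hours with HeLa miR-21-FLuc reporter cells (miR-21 target sequence downstream of FLuc, endogenous miR-21). Readout was firefly luciferase luminescence after lytic detection reagent.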
TDP1 cell CPT = growth inhibition of DT40 Tdp1-/-;hTDP1 cells with camptothecin (screen for TDP1 inhibitors). chicken DT40 Tdp1-/-;hTDP1 cells + 20 nM CPT, ATP luminescence, 48 h. Potency, µM (doses to about 46.2 µM), inactives show at the top dose activity change, negative = growth inhibition, actives largely listed as inhibitors. actives 12% (n = 420,000). AID 686979; further: potency means the concentration at half of the fitted maximal effect; on the % scale 0 is the no-effect control and ±100 the full control effect; nearly all actives have a fitted effect of over 55% in size
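Chicken DT40 Tdp1-/- cells complemented with human TDP1, 400 cells/well, exposed to compounds plus 20 nM camptothecin for at least 48 h at 37 C; viability read as ATP content by CellTiter-Glo luminescence.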
* marks the source's active call; other numbers are inactive results; [ ] = dose if it differs, or a comment. In the library only some 16% were active in any assay of this set; here they are far more common. Unless noted, the call rests on the fitted dose curve; in most records, active means well fitted curve in the direction sought with a large enough effect; inconclusive means small, poorly fitted or top-dose-only effect, or another doubt; inactive means no such curve, though single readings can be large; an effect the other way counts as inactive or inconclusive.

Screening O=C(COC(=O)/C=C/c1ccccc1)NCc1cccs1 returned TDP1 cell noCPT -22.7%, TDP1 block -1.3%, uPA generation 6.4% and TDP1 cell CPT -8.8%.
`CCN(CC)S(=O)(=O)c1ccc(C(=O)OCC(=O)NCc2ccco2)cc1` gave TDP1 cell noCPT -26.8%, TDP1 block -15.0%, uPA generation -9.5%, miR-21 reporter 2.1% and TDP1 cell CPT inconclusive.
For CCN(CC)S(=O)(=O)c1ccc(/C=C/C(=O)OCC(=O)NCc2cccs2)cc1 the results were TDP1 cell noCPT inconclusive, TDP1 block 0.9%, uPA generation -3.3% and TDP1 cell CPT 20.6µM*.
For O=C(CCc1nc2sc3c(c2c(=O)[nH]1)CCCC3)Nc1cccc(Cl)c1 the results were TDP1 cell noCPT 20.6µM*, uPA generation -31.9% and TDP1 cell CPT inconclusive.
Cc1cc(C)cc(NC(=O)CCc2nc3sc4c(c3c(=O)[nH]2)CCCC4)c1 was read as TDP1 cell noCPT 10.3µM*, uPA generation -0.3% and TDP1 cell CPT 4.61µM*.
`Cc1ccc(C(=O)N2CCN(Cc3nc4sc5c(c4c(=O)[nH]3)CCCC5)CC2)cc1` gave TDP1 cell noCPT 20.6µM*, TDP1 block 13.9%, uPA generation -3.4%, miR-21 reporter 0.1% and TDP1 cell CPT 29.1µM*.
CCN(CC(=O)Nc1ccccc1C(F)(F)F)C(=O)CCc1nc2sc3c(c2c(=O)[nH]1)CCCC3 was read as TDP1 cell noCPT 16.4µM*, uPA generation 1.8% and TDP1 cell CPT inconclusive.
Screening CCOc1ccc(/C(CCC(=O)O)=N/NC(=S)NC(C)C)cc1 returned TDP1 cell noCPT inconclusive, TDP1 block 5.8%, uPA generation -5.1%, miR-21 reporter -16.4% and TDP1 cell CPT inconclusive.
`COc1ccc(CN(C)C(=O)c2cccc(Oc3ccccc3)c2)c(OC)c1OC` gave TDP1 cell noCPT inconclusive, TDP1 block -1.4%, uPA generation 5.9%, miR-21 reporter 29.1% and TDP1 cell CPT inconclusive.
O=C(COC(=O)/C=C/c1ccccc1[N+](=O)[O-])NCC1CCCO1 (stereo unspecified) was read as TDP1 cell noCPT 0.7%, TDP1 block 1.2%, uPA generation -0.3%, miR-21 reporter 1.3% and TDP1 cell CPT 4.7%.
Screening CC(=O)c1cccc(N(CC(=O)NC2CCCCC2)C(=O)Cn2nnc(-c3ccccc3)n2)c1 returned TDP1 cell noCPT -27.4%, uPA generation -1.4%, miR-21 reporter 0.0% and TDP1 cell CPT -4.3%.
CCN(CC(=O)NC(C)C)Cc1nc2sc3c(c2c(=O)[nH]1)CCC3 was read as TDP1 cell noCPT 4.61µM*, TDP1 block 4.5%, uPA generation -2.7%, miR-21 reporter -1.7% and TDP1 cell CPT 3.26µM*.
`O=S(=O)(/N=C(/Nc1ccccc1)c1ccccc1O)c1ccccc1` gave TDP1 cell noCPT -5.5%, TDP1 block -7.7%, uPA generation -2.7%, miR-21 reporter -21.9% and TDP1 cell CPT -1.0%.
CSc1ccc(CN2CCC2(C)C(=O)NCc2ccc3c(c2)OCO3)cc1 (stereo unspecified) was read as TDP1 cell noCPT inconclusive and TDP1 cell CPT 14.6µM*.
CSc1ccc(CN2CCC2(C)C(=O)Nc2ccc3c(c2)OCO3)cc1 (stereo unspecified) was read as TDP1 cell noCPT inconclusive and TDP1 cell CPT 29.1µM*.
Screening CCN(CC)S(=O)(=O)c1ccc(C(=O)NCC(=O)NC2CC2)cc1 returned TDP1 cell noCPT -36.8%, uPA generation 6.1% and TDP1 cell CPT 5.2%.
CN(CC(=O)Nc1cccc(F)c1)C(=O)c1ccc2c(=O)n3c(nc2c1)CCC3 was read as TDP1 cell noCPT -8.8%, TDP1 block -1.1%[0.505 µM], uPA generation -0.9% and TDP1 cell CPT 3.5%.
`COc1ccc2nc3ccccc3nc2c1N` gave TDP1 cell noCPT 8.2µM*, TDP1 block 11.2%, uPA generation -5.2%, miR-21 reporter -1.3% and TDP1 cell CPT inconclusive.
COc1ccc2nc3cccc(OC)c3nc2c1 was read as TDP1 cell noCPT inconclusive, TDP1 block 2.5%, uPA generation -9.0%, miR-21 reporter -17.5% and TDP1 cell CPT inconclusive.
COc1ccc(CCNC(=O)c2ccc(Cl)cc2)cc1 was read as TDP1 cell noCPT -7.7%, TDP1 block 1.9%, uPA generation -1.1%, miR-21 reporter -13.8% and TDP1 cell CPT inconclusive.
Screening COc1ccc(CCNC(=O)c2cc3ccc(Cl)cc3nc2N)cc1 returned TDP1 cell noCPT 5.8µM* and TDP1 cell CPT inconclusive.
Screening Nc1nc2cc(Cl)ccc2cc1C(=O)NCCCc1ccccc1 returned TDP1 cell noCPT 14.6µM* and TDP1 cell CPT inconclusive.
For FC(F)(F)c1cc(-c2cccc(Br)c2)nc2ncnn12 the results were TDP1 cell noCPT -11.3%, TDP1 block 4.2%, miR-21 reporter -19.9% and TDP1 cell CPT -11.5%.
Cc1ccc(NC(=O)Nc2nnc(SCC(=O)N(C(C)C)C(C)C)s2)cc1 was read as TDP1 cell noCPT 16.4µM*, TDP1 block 0.0%, miR-21 reporter inconclusive and TDP1 cell CPT 18.4µM*.
`CC1CN(c2ccc([N+](=O)[O-])c(NCCOc3ccccc3)c2)CC(C)N1` (stereo unspecified) gave TDP1 cell noCPT inconclusive, TDP1 block 8.4%, uPA generation 1.6%, miR-21 reporter 14.2% and TDP1 cell CPT inconclusive.
For CC(C)(C)CNc1cc(N2CCCC2)ccc1[N+](=O)[O-] the results were TDP1 cell noCPT -23.8%, TDP1 block 1.0%, miR-21 reporter 0.2% and TDP1 cell CPT -20.4%.
O=[N+]([O-])c1ccc(N2CCCCC2)cc1NCCOc1ccccc1 was read as TDP1 cell noCPT 18.4µM*, TDP1 block 7.0%, uPA generation 3.6%, miR-21 reporter -13.2% and TDP1 cell CPT 29.1µM*.
CCc1ccc(OCCNc2cc(N3CCNC(C)C3)ccc2[N+](=O)[O-])cc1 (stereo unspecified) was read as TDP1 cell noCPT inconclusive, TDP1 block 4.0%[56.1 µM], uPA generation inconclusive and TDP1 cell CPT 23.1µM*.
For Cc1ccccc1OCCNc1cc(N2CC(C)NC(C)C2)ccc1[N+](=O)[O-] (stereo unspecified) the results were TDP1 cell noCPT inconclusive, TDP1 block 6.9%, uPA generation -16.0%, miR-21 reporter inconclusive and TDP1 cell CPT 14.6µM*.
`NCCNc1cc(N2CCCC2)ccc1[N+](=O)[O-]` gave TDP1 cell noCPT inconclusive, TDP1 block -5.9%, uPA generation -0.7%, miR-21 reporter -13.8% and TDP1 cell CPT 23.1µM*.
COc1ccc(S(=O)(=O)c2c(SC)nn(CC(=O)Nc3cccc(C)c3C)c2N)cc1 was read as TDP1 cell noCPT inconclusive, TDP1 block 0.0%, miR-21 reporter 1.7% and TDP1 cell CPT -17.0%.

Ordered by length of the SMILES (high to low): part of the list above.
CCc1ccc(OCCNc2cc(N3CCNC(C)C3)ccc2[N+](=O)[O-])cc1 (stereo unspecified) was read as TDP1 cell noCPT inconclusive, TDP1 block 4.0%[56.1 µM], uPA generation inconclusive and TDP1 cell CPT 23.1µM*.
Screening CCN(CC)S(=O)(=O)c1ccc(C(=O)NCC(=O)NC2CC2)cc1 returned TDP1 cell noCPT -36.8%, uPA generation 6.1% and TDP1 cell CPT 5.2%.
Screening COc1ccc(CCNC(=O)c2cc3ccc(Cl)cc3nc2N)cc1 returned TDP1 cell noCPT 5.8µM* and TDP1 cell CPT inconclusive.
Screening Nc1nc2cc(Cl)ccc2cc1C(=O)NCCCc1ccccc1 returned TDP1 cell noCPT 14.6µM* and TDP1 cell CPT inconclusive.

Screening results: PubChem BioAssay, National Center for Advancing Translational Sciences (NCATS)
